From patent US20260098017A1, “NOVEL AROMATIC RING DERIVATIVE CONTAINING AMIDE SUBSTITUTION AND USE THEREOF” (TIANJIN PHARMACEUTICAL BIOTECHNOLOGY CO., LTD., priority 2022, published 2026)
pIC50: −log10 of the molar value.

Sequences of proteins named here, by UniProt entry; tags and fusion partners are left off. Residues count along the entry.
UniProt O60674, 849-1124 limits assumed: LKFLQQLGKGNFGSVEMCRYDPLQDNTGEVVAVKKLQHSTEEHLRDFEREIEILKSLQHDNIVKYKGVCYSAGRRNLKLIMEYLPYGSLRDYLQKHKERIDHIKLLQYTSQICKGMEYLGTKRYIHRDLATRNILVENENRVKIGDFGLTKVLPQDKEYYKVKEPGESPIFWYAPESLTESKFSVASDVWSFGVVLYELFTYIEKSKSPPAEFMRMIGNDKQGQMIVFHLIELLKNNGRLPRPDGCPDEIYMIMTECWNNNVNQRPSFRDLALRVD

Molecular target: JAK2 JH1 kinase (Homo sapiens, UniProt O60674)
Assay: JAK2 JH1 enzyme assay in vitro (TR-FRET)
Format: biochemical

Q: `[2H]C([2H])([2H])NC(=O)c1nnc(NC(=O)C2CC2)cc1Nc1cccc(-c2ncn(C)n2)c1OC([2H])([2H])[2H]` [BMS-986165, reference compound] was tested. Which pIC50 did it give?
A: The pIC50 was < 5.00.
